# From ChEMBL document CHEMBL1128201, “Selective and potent monoamine oxidase type B inhibitors: 2-substituted 5-aryltetrazole derivatives” (J Med Chem, 1995)
# Sequences of proteins named here, by UniProt entry; tags and fusion partners are left off.
# UniProt P19643, whole entry: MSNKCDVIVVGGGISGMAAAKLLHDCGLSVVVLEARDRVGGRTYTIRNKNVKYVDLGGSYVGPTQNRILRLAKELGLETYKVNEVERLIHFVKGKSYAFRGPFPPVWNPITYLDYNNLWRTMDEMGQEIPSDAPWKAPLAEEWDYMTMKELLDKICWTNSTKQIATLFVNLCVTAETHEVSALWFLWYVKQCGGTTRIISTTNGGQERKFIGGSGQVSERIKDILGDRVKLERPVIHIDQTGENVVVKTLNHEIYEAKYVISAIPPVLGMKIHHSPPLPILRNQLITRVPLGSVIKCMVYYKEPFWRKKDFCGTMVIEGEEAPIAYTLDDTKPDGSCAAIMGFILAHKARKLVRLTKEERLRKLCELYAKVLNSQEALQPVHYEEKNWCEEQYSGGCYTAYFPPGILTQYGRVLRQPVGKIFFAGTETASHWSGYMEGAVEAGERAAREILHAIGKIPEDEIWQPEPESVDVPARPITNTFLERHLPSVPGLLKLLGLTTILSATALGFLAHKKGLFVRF
# UniProt P21396, whole entry: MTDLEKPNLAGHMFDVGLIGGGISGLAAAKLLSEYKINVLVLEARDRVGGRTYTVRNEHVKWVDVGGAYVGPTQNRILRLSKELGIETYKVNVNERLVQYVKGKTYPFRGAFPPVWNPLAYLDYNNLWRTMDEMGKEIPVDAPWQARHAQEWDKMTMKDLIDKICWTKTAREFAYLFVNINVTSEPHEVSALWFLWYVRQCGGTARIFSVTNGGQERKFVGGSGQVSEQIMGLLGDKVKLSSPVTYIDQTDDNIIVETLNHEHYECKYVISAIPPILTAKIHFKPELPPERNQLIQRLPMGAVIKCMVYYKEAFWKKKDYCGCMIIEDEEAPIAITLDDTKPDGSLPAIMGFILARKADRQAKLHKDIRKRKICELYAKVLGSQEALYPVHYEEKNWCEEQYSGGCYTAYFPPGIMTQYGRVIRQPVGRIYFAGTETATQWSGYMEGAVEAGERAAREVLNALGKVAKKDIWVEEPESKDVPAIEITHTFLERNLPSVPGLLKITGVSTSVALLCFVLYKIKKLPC
# Columns and labels:
# [1] = molecular target: Amine oxidase [flavin-containing] B (Rattus norvegicus, UniProt P19643); assay: In vitro inhibitory activity against rat brain Monoamine oxidase B
# [2] = molecular target: Amine oxidase [flavin-containing] A (Rattus norvegicus, UniProt P21396); assay: In vitro inhibitory activity against rat brain Monoamine oxidase A
compound,measurement,setting,value
NCCNC(=O)c1ccc(Cl)cn1 [LAZABEMIDE],IC50,[1],30 nM
same,IC50,[2],> 10000 nM
